Screening results from PubChem.
Sampled rows, rich in hits. Any-hit rate of the full collection: about 16%.
miR-21 reporter: raises the signal of a miR-21 reporter; AID 2288; 340,000 tested, under 10 active; Potency, µM (doses to about 38.3 µM), inactives show at the top dose reporter change, positive = more light; HeLa miR-21 FLuc reporter, luciferase, 48 h; active = well fitted rising curve with a large enough effect; inconclusive = small, poorly fitted or top-dose-only effect; inactive = no such curve, though single readings can be large or run the other way;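 note: % of control where 0% means no effect; miR-21 action dims this reporter so a rising signal means less miR-21 action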
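HeLa cells endogenously expressing miR-21, stably carrying CMV-driven firefly luciferase with a downstream miR-21 binding site, 2000 cells/well. Titrations up to approximately 40 uM, 48 hours; luciferase luminescence read.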
TDP1 block: inhibitors of human tyrosyl-DNA phosphodiesterase TDP1. actives 0.28% (n = 350,000). recombinant TDP1, AlphaScreen DNA substrate cleavage. Q9NUW8. Potency, µM (top dose mostly 130 µM), for the others: at the highest dose activity change, negative = inhibition, usual class: inhibitors; note: potency is the fitted concentration of half-maximal effect; % is set by controls: 0 for no effect and ±100 for the full control effect; nearly all actives have a fitted effect of over 40% in size
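E. coli-derived human Tdp1, 1 nM final. Cpd preinc 15 min RT; substrate 15 nM final, 5 min RT; AS bead mix 10 ug/ml final, 10 min RT. Signal loss = tyrosine-FITC cleavage. No-enzyme wells = max signal.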
TDP1 cell noCPT: qHTS for Inhibitors of human tyrosyl-DNA phosphodiesterase 1 (TDP1): qHTS in cells in absence of CPT; DT40 Tdp1-/- hTDP1 cells, no CPT, ATP luminescence, 48 h; Potency, µM (doses to about 46.2 µM), for the others: at the highest dose activity change, negative = growth inhibition, most hits filed as inhibitors; actives 15% (n = 420,000); AID 686978, 2013; note: potency is the fitted concentration of half-maximal effect; % is set by controls: 0 for no effect and ±100 for the full control effect; nearly all actives have a fitted effect of over 55% in size
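DT40 Tdp1-/-;hTDP1 cells, no CPT (DMSO vehicle only), 400 cells/well; compounds pin-transferred; ≥48 hr, 37 °C; CellTiter-Glo 30 min RT dark, luminescence read.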
uPA generation: blocks generation of uPA at the cell surface; Potency, µM (highest dose often 38.3 µM), for inactives: at the top dose activity change, negative = inhibition, hits mostly inhibitors; cell surface uPA generation assay, qHTS; AID 540303; actives 0.31% (n = 330,000); active = well fitted inhibition curve with a large enough effect; inconclusive = small, poorly fitted or top-dose-only effect; inactive = no such curve, though single readings can be large or run the other way; tested in mouse RAW 264.7 cells; note: potency is the fitted concentration of half-maximal effect; % is set by controls: 0 for no effect and ±100 for the full control effect; nearly all actives have a fitted effect of over 55% in size
DT40 TDP1 CPT: growth inhibition of DT40 Tdp1-/-;hTDP1 cells with camptothecin (screen for TDP1 inhibitors); chicken DT40 Tdp1-/-;hTDP1 cells + 20 nM CPT, ATP luminescence, 48 h; Potency, µM (top dose mostly 46.2 µM), for inactives: at the highest dose activity change, negative = growth inhibition, most hits filed as inhibitors; actives 12% (n = 420,000); AID 686979; note: potency is the fitted concentration of half-maximal effect; % is set by controls: 0 for no effect and ±100 for the full control effect; nearly all actives have a fitted effect of over 55% in size
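Chicken DT40 Tdp1-/- cells stably complemented with human TDP1 were seeded at 400 cells/well in medium containing 20 nM camptothecin, exposed to pin-transferred compounds, and grown at 37 °C for at least 48 hr. Viability was read as ATP luminescence.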
* marks the source's active call; other numbers are inactive results; ? = inconclusive; · = not tested or not shown; ! = a repeat was not active. Unless noted, calls come from the whole dose curve; as a rule, active = well fitted curve in the direction sought with a large enough effect; inconclusive = small, poorly fitted or top-dose-only effect, or another doubt; inactive = no such curve, though single readings can be large; an effect the other way counts as inactive or inconclusive.

SMILES | miR-21 reporter | TDP1 block | TDP1 cell noCPT | uPA generation | DT40 TDP1 CPT
N#CC(C#N)=C1C=CC=CN1/C(=C\c1ccco1)C(=O)c1ccccc1 | ? | 1.4% | 1.46µM* | 7.3% | 1.3µM*
Nc1nnc(SCC(=O)Nc2cc(F)ccc2F)s1 | · | · | 0.5% | 4.7% | 4.2%
CCn1c(=O)c2cc(C(=O)NCCCN3CCC(C)CC3)sc2c2ccccc21 | 1.7% | -1.2% | 18.4µM* | · | 23.1µM*
CCn1c(=O)c2cc(C(=O)NCCCN3CCN(C)CC3)sc2c2ccccc21 | -33.5% | 1.2% | ? | · | 16.4µM*
CCn1c(=O)c2cc(C(=O)NC3CCC(C)CC3)sc2c2ccccc21 (stereo not given) | 12.4% | 1.2% | -84.6% | · | 16.4µM*
CC(C)(C)c1ccc(OCCSc2nc3ccccc3n2CC(=O)O)cc1 | -1.0% | · | -1.2% | 10.2% | -2.0%
CCOc1cc(-c2cn(S(=O)(=O)c3cccc4nsnc34)nc2N)cc(OCC)c1OCC | -9.8% | 5.9% | ? | · | ?
CCOC(=O)c1c(CN2CCOCC2)n(-c2ccccc2)c2cc(Br)c(OC)cc12 | 0.4% | -4.7% | 20.6µM* | 1.2% | 16.4µM*
CCOC(=O)c1c(CSC(=N)N)n(C)c2cc(Br)c(OC(C)=O)cc12 | 16.8% | · | 16.4µM* | -1.8% | 16.4µM*
CCOC(=O)c1c(CN2CCOCC2)n(-c2ccccc2)c2cc(Br)c(O)cc12 | 16.2% | 5.9% | 18.2% | -2.3% | -16.0%
CCOC(=O)c1c(CN2CCN(C)CC2)n(C)c2cc(Br)c(OC)cc12 | -13.9% | -1.1% | ? | · | ?
COc1cc2c(C(=O)OCCN(C)C)c(CSc3ccccc3)n(C)c2cc1Br | 3.8% | -5.1% | ? | -18.3% | ?
CCOC(=O)c1c(CN2CCCCC2)n(C)c2cc(Br)c(O)cc12 | -5.3% | 3.9% | 9.2µM* | · | 2.31µM*
COc1ccccc1OCC(=O)Nc1ccc(S(=O)(=O)Nc2nccs2)cc1 | 0.2% | · | -16.1% | -0.4% | 3.1%
COc1ccc(C2NC(=O)c3n[nH]c(C)c32)c(OC)c1 (stereo not given) | -17.0% | 0.0% | -14.2% | -2.1% | 13.5%
CC(=O)c1sc(N/N=C/c2cccc(O)c2)nc1C | -52.2% | · | 11.6µM* | ? | 25.9µM*
CC(=O)c1sc(N/N=C\c2c(O)ccc3ccccc23)nc1C | · | · | 0.92µM* | -6.7% | 0.92µM*
CC(=O)c1sc(N/N=C/c2cccc([N+](=O)[O-])c2)nc1C | -11.4% | 4.9% | -22.8% | -0.9% | -18.1%
CCOC(=O)c1ccc2c(c1)NCc1cccc(OC)c1O2 | -65.3% | 6.3% | 10.3µM* | -26.6% | 10.3µM*
C=CC[n+]1ccc(/C=C2\C=Cc3cc(C)ccc3N2CC)c2ccccc21 | ? | 9.9% | 0.206µM* | 2.51µM* | 0.291µM*
CCOC(=O)c1ccc(NC(=O)c2ccc3c(c2)C(=O)N(CC2CCCO2)C3=O)cc1 (stereo not given) | 6.5% | 2.1% | 18.4µM* | 3.6% | ?
Cc1ccc(NC(=O)c2ccc3c(c2)C(=O)N(CC2CCCO2)C3=O)cc1C (stereo not given) | 0.1% | 6.0% | -26.8% | -1.7% | -0.3%
Cc1nn(-c2ccccc2)c(Oc2ccccc2)c1C=O | 5.8% | 0.6% | 13µM* | ? | 16.4µM*
CCOc1ccc(Oc2c(/C=N/NC(N)=O)c(C)nn2-c2ccccc2)cc1 | -17.6% | 6.9% | ? | 0.9% | -1.8%
CCCCCCCCNS(=O)(=O)CCNCCCC | · | · | 16.4µM* | 15.7% | ?

A few values from the entries so far.
CCCCCCCCNS(=O)(=O)CCNCCCC @ uPA generation = 15.7%
CCOC(=O)c1c(CN2CCCCC2)n(C)c2cc(Br)c(O)cc12 @ miR-21 reporter = -5.3%
CCOC(=O)c1c(CN2CCOCC2)n(-c2ccccc2)c2cc(Br)c(OC)cc12 @ uPA generation = 1.2%

Taken from the listing for reference:
SMILES | miR-21 reporter | TDP1 block | TDP1 cell noCPT | uPA generation | DT40 TDP1 CPT
CCOc1ccc(Oc2c(/C=N/NC(N)=O)c(C)nn2-c2ccccc2)cc1 | -17.6% | 6.9% | ? | 0.9% | -1.8%
CCCCCCCCNS(=O)(=O)CCNCCCC | · | · | 16.4µM* | 15.7% | ?

Back to the main list with the 2 entries that preceded the break.
SMILES | miR-21 reporter | TDP1 block | TDP1 cell noCPT | uPA generation | DT40 TDP1 CPT
CCOc1ccc(Oc2c(/C=N/NC(N)=O)c(C)nn2-c2ccccc2)cc1 | -17.6% | 6.9% | ? | 0.9% | -1.8%
CCCCCCCCNS(=O)(=O)CCNCCCC | · | · | 16.4µM* | 15.7% | ?
O=C(C1CCN(C2CCN(Cc3ccc4c(c3)CCO4)CC2)CC1)N1CCOCC1 | -0.5% | 2.7% | -12.8% | -2.1% | 14.4%
COc1ccc(CC(C)Nc2ccccc2F)cc1 (stereo not given) | -2.9% | -17.8% | -23.6% | 2.4% | -6.7%
COc1cc(NC(C)CCCN)c2ncccc2c1 (stereo not given) | · | 8.6% | 7.18µM*! | -5.7% | ?
COc1cc(NC(C)CCCN)c2nc(C)ccc2c1Oc1ccc(F)cc1 (stereo not given) | · | · | 10.3µM* | · | 25.9µM*
O=C(O)CCCc1ccc2ccc3cccc4ccc1c2c34 | -4.5% | · | 6.4% | -2.9% | 2.0%
NCCCCc1ccc2ccc3cccc4ccc1c2c34 | · | -0.6% | ? | 2.9% | 16.4µM*
Oc1ccc2ccccc2c1/C=N/Nc1ccccc1 | -28.1% | 7.9% | 1.8% | -1.5% | 5.5%
O=CN/N=C/c1c(O)ccc2ccccc12 | 29.6% | 6.2% | 6.51µM* | -19.0% | 7.31µM*
NC(=S)N/N=C/c1c(O)ccc2ccccc12 | 15.8% | 10.3% | ? | ? | 11.6µM*
Cc1ccccc1NC(=O)NC1CCS(=O)(=O)C1 (stereo not given) | -3.8% | · | -3.8% | 2.7% | 9.3%
Cc1ccc(NC(=O)c2cc(C(=O)c3cc(Cl)ccc3O)cn(-c3ccc(C)cc3)c2=O)cc1 | 15.3% | 5.5% | 20.6µM* | -2.2% | 18.4µM*
N#Cc1cc(C(=O)c2cc(Cl)ccc2O)cn(-c2ccccc2)c1=O | 6.7% | 2.8% | 1.0% | 0.8% | 18.6%
Cc1cc(C(=O)N2CCOCC2)n(-c2ccccc2)n1 | -1.6% | 0.0% | -5.1% | -2.6% | 0.2%
Cc1cc(C(=O)N2CC(C)CC(C)C2)n(-c2ccccc2)n1 (stereo not given) | -1.2% | 2.2% | 8.2µM* | 0.1% | 10.3µM*
CC(C)(C)NS(=O)(=O)c1cc(C(=O)Nc2sccc2C#N)ccc1Cl | -15.2% | -12.2% | 11.6µM* | 5.3% | 16.4µM*
CCCNC(=O)c1nn2c(C(F)(F)F)cc(-c3ccccc3)nc2c1Br | 0.1% | · | ? | 4.1% | -22.3%
Cc1cc(C)n(Cc2ccc(C(=O)O)cc2)n1 | -1.6% | 3.3% | -8.4% | 14.0% | 2.3%
Cc1ccc(C)n1Cc1ccc(C(=O)O)cc1 | -0.9% | 3.55µM* | -15.1% | · | -15.2%
CCc1ccc(NC(=O)c2cnn(-c3ccccc3)c2-n2cccc2)cc1 | 4.4% | 2.5% | ? | · | 18.4µM*
CCc1ccc(NC(=O)c2cnn3ccccc23)cc1 | ? | 2.6% | -22.6% | ? | 3.8%
Cc1cccc(NC(=O)c2cnn(-c3ccccc3)c2-n2cccc2)c1C | -3.0% | 5.1% | ? | · | 16.4µM*
Cc1c(C(=O)Nc2cccc(F)c2)cnn1-c1ccccc1 | -21.9% | · | 14.6µM* | -1.7% | 18.4µM*
NCCCCCCC(O)(P(=O)(O)O)P(=O)(O)O | · | 10.8% | · | · | ·
CN1CCN(C(=O)c2cc(=O)c3cc(Cl)cc(Cl)c3o2)CC1 | 0.1% | · | -19.6% | -1.0% | 13.7%
CNc1nc(-c2ccccc2)nc(-c2ccccc2)c1C#N | -1.0% | 4.1% | -6.0% | -7.8% | ?
NNc1nc(-c2ccccc2)nc(-c2ccccc2)c1Br | · | · | 8.2µM* | -3.5% | ?
CCOc1ccc(NC(=O)Cn2cc(C(=O)c3ccc(C)c(C)c3)c(=O)c3cc4c(cc32)OCCO4)cc1 | -9.4% | 1.3% | -17.3% | · | -10.2%
